## Apparent affinities of Ab-14 variants for a coronavirus HR2 peptide

From the AlphaSeq antibody data of Li et al. 2023 (doi:10.1038/s41467-023-39022-2), copy in the FLAb collection.

Target: peptide PDVDLGDISGINAS, taken from heptad repeat 2 (HR2) of SARS-CoV-2 spike.

The variants keep the heavy chain, the linker and the frameworks of Ab-14 (scFv order VH, three GGGGS repeats, VL).
VH: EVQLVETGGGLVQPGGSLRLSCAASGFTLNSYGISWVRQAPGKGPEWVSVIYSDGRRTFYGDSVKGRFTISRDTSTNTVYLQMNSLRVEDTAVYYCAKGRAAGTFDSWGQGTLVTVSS
VL: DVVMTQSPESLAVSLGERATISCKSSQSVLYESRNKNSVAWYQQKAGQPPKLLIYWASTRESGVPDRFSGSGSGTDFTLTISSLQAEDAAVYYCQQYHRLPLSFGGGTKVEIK

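Phage display of a naive human antibody library on the peptide gave the parent. The variants were designed computationally from a first round of random CDR variants and then made and measured. Group labels follow the data file (Ctrl: baseline library sampled from a position-specific scoring matrix, with some repeated check sequences; Rand: our label for a block that the file lists under HC and that is probably the random mutants of the ten best first-round binders; En: ensemble of fine-tuned language models; GP: Gaussian process model; HC: hill climbing; Gen: genetic algorithm; Gibbs: Gibbs sampling; a sequence that several methods proposed may carry one label only). Affinity was read by AlphaSeq, a pooled yeast mating assay with surface-displayed partners. Pairs that bind mate more often; barcode pairs of the diploids are counted by sequencing. A regression on co-assayed BCL2-family reference pairs converts the normalised counts of each replicate to an apparent Kd. Each pool was mated in six replicate cultures.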

The parent's light chain CDRs are KSSQSVLYESRNKNSVA, WASTRES, QQYHRLPLS; each variant's own CDRs replace them letter for letter. Values are apparent Kd, the geometric mean of the replicates that gave a signal; lower means stronger binding. An entry "not detected" has no value in the source: the pair was not observed among the diploids in any replicate. This suggests poor binding but is not conclusive. Values of this round are not directly comparable with the first-round values of the same sequences. The parent sequence was in this pool as ten entries: three were never detected, three once, and four in most replicates, with averages from 2.2 nM to 240 nM. Three control strains display no target. For all light chain designs, 4% of the pairings with them gave a signal, with a median of 430 nM and one signal in twenty below 38 nM, so weak values seen in few replicates may be background. Also given: how often the same scFv was detected with the empty control strains. The authors' rule: three or more of the six replicates give a measured affinity, fewer mean a poor binder.

CDR-L1,CDR-L2,CDR-L3,group,Kd (apparent),seen in,signal with controls
HIQSNMFGFGGVANNVA,QTATKMV,QQYSKLPLM,En_Gibbs,2.3 nM,6/6,0/18
KSSQSVLYESRNKNSVA,WASTRES,QQYSRLPLS,Ctrl,190 nM,6/6,1/18
KVSQSQLGESRMKQSVA,HASQRES,QQYHRLPLS,GP_Gibbs,2.0 nM,6/6,4/18
GSSQSVLLESRNKNSVA,AASTRES,QQYHRLCLS,Ctrl,not detected,0/6,0/18
KSSQMVEYESRNLNSVA,WASTRES,QQYHRLPLS,Ctrl,67 nM,5/6,0/18
KLEQSAWLESRNKNAVA,SASQREL,QQYHRLPLS,GP_Gibbs,360 pM,6/6,0/18
KSSISYAYESRNKNSVA,DASTRES,QQYHRLPLS,GP_HC,1.1 nM,6/6,1/18
LQSQSELLESRNHNSVA,HASTRMD,QQYHRLPLS,GP_Gibbs,52 nM,5/6,0/18
KSSQSVLYNSRNKNSVA,EASTREQ,QQYHRLPLS,Ctrl,2.6 nM,6/6,2/18
KSSPSWLYEDRVKNSVA,GASTRES,QQYHRLPLS,GP_HC,2.8 nM,6/6,5/18
MISQLYNMGQFAINSVA,QASNRNE,QQYDRLPLM,En_Gen,53 nM,3/6,0/18
FMEMDFDGNSVNRNSIA,SSEVVTR,QHYYRLPLS,En_Gibbs,not detected,0/6,0/18
ALTNEPESVDHHKNNVA,STSKRCM,QQYARLPLS,En_Gibbs,2.7 nM,6/6,1/18
KVQQSELGLSRMFNSVA,NASKRES,QQYHRLPLS,GP_Gibbs,1.0 nM,6/6,1/18
KSSQSVLMESRNCNSVA,DASTRES,QQYVRLPLS,GP_HC,4.3 nM,6/6,0/18
KAEQGDLYESRNKNSVA,GASTRES,QQYHRLPLS,GP_HC,420 pM,6/6,2/18
KITATMRFEQKASNNIA,EVTTRSK,QQYYRLPLS,En_Gen,3.2 nM,6/6,1/18
KLSMSVLYESRNKNNVA,EASTRES,QQYHRLPLS,GP_Gen,300 pM,6/6,0/18
TITEFMDNLSRNRNNVA,DTSTLGD,QSYDRLPLS,En_Gen,4.9 nM,6/6,3/18
KSSQSVLYESRNKNSVA,WASLAES,QQYGRLPLS,Ctrl,not detected,0/6,0/18
KLRMMTLTGGYFKNSVA,QASTREN,QSYHRLPLS,En_HC,19 nM,5/6,1/18
KISMTSENQLKQRNSVA,ELVTRLN,QQYNRLPLS,En_Gen,7.3 nM,6/6,0/18
KLSQSMLYESRNKNSVA,DASQRLS,QQYHRLPLS,GP_Gen,620 pM,6/6,3/18
NFSMALEDMDVKTKSIA,ENQLTEY,QQYAKLPLM,En_Gibbs,44 nM,6/6,1/18
KLRQSTLYESRNPNSVA,WASQRES,QQYHRLPLS,GP_HC,2.5 nM,6/6,0/18
KITSTMRFEQKNKNNIA,EVSTRSK,QQYVRLPLA,En_Gen,440 pM,6/6,1/18
KLSMSVNFFGHAINSVA,EMETREN,QQYDRLPLS,En_HC,38 nM,6/6,1/18
IVSQLMLWGYHAKNSIA,EAEMRLN,QQYDRLPLF,En_Gen,380 nM,2/6,0/18
KQSQSDLVESRNKNSVA,DASTRES,QQYHRLPLS,GP_HC,330 pM,6/6,0/18
KSSQSVLYESRNKNCVA,DASTREE,QQYHRLPLS,Ctrl,930 pM,6/6,1/18
HSSPSVAYESRNKNSVA,DASTRES,QQYHRLPLS,GP_HC,1.2 nM,6/6,0/18
KSSQSVLYESRNKNSVA,WASTRES,QHYHRLPLS,Ctrl,not detected,0/6,1/18
KLLQTVMNGKRNRNNVA,HMTMRED,QQYFRLPLS,En_HC,410 nM,3/6,0/18
KSSQSVLYESRNKNSVA,EASTRES,QQYHRAPLS,Ctrl,52 nM,3/6,1/18
KLSQSVPYESRNKNAVA,NASTRES,QQYHRLPLS,GP_Gen,500 pM,6/6,0/18
HLGGLMTWESHAKNSVA,QSNTRAE,QQYHRLPLS,En_HC,1.3 nM,6/6,1/18
KLDQSVLEKSRNKNSVA,WASTRES,QDYHRLPLS,GP_Gibbs,4.2 nM,6/6,5/18
HFSQVTMYGSWAKNSVA,QTSTREE,QQYDRLPLS,En_HC,8.0 nM,6/6,0/18
KIELDLTRYNNSYSAIA,HETQKAQ,QQYSRLPLV,En_Gibbs,53 nM,6/6,0/18
KWSQSWLMESMLSNSVA,NASQRES,QQYHRLPLS,GP_Gibbs,2.8 nM,6/6,0/18
KVKQSQAYESRNKNSVA,WASTRES,QQYHRLPLS,Ctrl,30 nM,6/6,1/18
TLGDVTRMESNKKNSIA,DMSNRAD,QQYHRLPLA,En_HC,630 pM,6/6,1/18
ILSASELYGDRMKNSVA,NASQRES,QQYHRLPLS,GP_Gibbs,920 pM,6/6,0/18
KIGMTLNQLMHQKNNVA,DLVMREN,QQYFRLPLS,En_Gen,3.0 nM,6/6,2/18
KLSQSVLFWGGAINSVA,EMETREY,QQYDRLPLS,En_HC,33 nM,6/6,0/18
KSSQSWPYGSRNKNSVA,WASTRES,QQYHRLPLS,Ctrl,1.7 nM,6/6,0/18
KVEMSVPYESRNKNSVA,HASVRES,QQYHRLPLS,GP_Gibbs,620 pM,6/6,2/18
KISQLVNFEGKNKNSVA,QMSTREN,QQYDRLPLS,En_HC,6.3 nM,6/6,0/18
KFSQSVLYESRVKNSVA,NASTRES,QWYHRLPLS,GP_HC,230 nM,1/6,0/18
FFSQGFYMEENMAHNVA,DNEQRTN,QQYDQLPLV,En_Gibbs,40 nM,6/6,1/18
SVQVYTENFMERGQNIA,DVSAKTV,QQYHRLPLA,En_Gibbs,2.9 nM,6/6,0/18
MSSQSLLYESRNKNSVA,WASTRES,QQYHILPLS,Ctrl,not detected,0/6,0/18
KSSFSVLFESRNKNSVA,DASTRSS,QQYHRLPLS,GP_HC,4.5 nM,6/6,1/18
KLSQSFLMESRNKNSVA,DASTRES,QQYHRLPLS,GP_Gen,270 pM,6/6,1/18
QLFSRWGQLEEIRYAVA,DATTVID,QQYMHLPLT,En_Gibbs,64 nM,5/6,2/18
KSSQSVLTESRNKNSVA,QASTRES,QQYHRLPLS,Ctrl,4.5 nM,6/6,0/18
SLYENYQNGGQHTNAVA,DANQMMR,QHYNRLPLA,En_Gibbs,2.0 nM,6/6,3/18
KSSQSKLDESRNKNSVA,WASTRES,QQYHRLPLS,Ctrl,60 nM,4/6,0/18
KIMQSLNYESFNKNSVA,GQQTRER,QSYHRLPLS,En_HC,34 nM,6/6,3/18
KIAFNTLIESKNLNSVA,EMTTREY,QDYDRLPLS,En_HC,160 nM,1/6,2/18
KISQITGHLSVSKNNVA,EMETREN,QQYDRLPLS,En_Gen,5.7 nM,6/6,0/18
KLYGSVLYESRNKNAVA,GASQREK,QQYHRLPLS,GP_Gibbs,580 pM,6/6,0/18
QLATEVTQNAKEGHAIA,EHELKAD,QQYFHLPLS,En_Gibbs,1.0 nM,6/6,0/18
KYPFSELYESRNQNSVA,EASQREE,QQYHRLPLS,GP_Gibbs,1.9 nM,6/6,1/18
KLLQNVMTEYRDRNNVA,HMDMRED,QQYWRLPLS,En_HC,13 nM,6/6,3/18
QSSQSVLYESRNKNSVA,GASTRES,QQYHRLPLS,GP_HC,5.0 nM,6/6,0/18
KYEGQELTESRNKNSVA,NASTRES,QQYHQLPLS,GP_Gibbs,9.4 nM,6/6,2/18
KLRQMTGTEGYFKNSVA,QASTREN,QSYHRLPLS,En_HC,34 nM,4/6,0/18
QIFGKLQEHGNQKANVA,QGVESRN,QQYFRLPLT,En_Gibbs,5.6 nM,4/6,1/18
KSSQSVLYESRNKNSVA,KASTRES,QQYVRLPLS,Ctrl,24 nM,4/6,0/18
TISQSTYWESRNKNSVA,QTSTRME,QDYDRLPLS,En_HC,12 nM,6/6,3/18
HSSPSVLYESRNKNSVA,PASTRES,QQYHRLPLS,Rand,25 nM,6/6,0/18

The 11 strongest on average among those seen in every replicate, once more:

CDR-L1	CDR-L2	CDR-L3	group	Kd (apparent)	seen in	signal with controls
KLSQSFLMESRNKNSVA	DASTRES	QQYHRLPLS	GP_Gen	270 pM	6/6	1/18
KLSMSVLYESRNKNNVA	EASTRES	QQYHRLPLS	GP_Gen	300 pM	6/6	0/18
KQSQSDLVESRNKNSVA	DASTRES	QQYHRLPLS	GP_HC	330 pM	6/6	0/18
KLEQSAWLESRNKNAVA	SASQREL	QQYHRLPLS	GP_Gibbs	360 pM	6/6	0/18
KAEQGDLYESRNKNSVA	GASTRES	QQYHRLPLS	GP_HC	420 pM	6/6	2/18
KITSTMRFEQKNKNNIA	EVSTRSK	QQYVRLPLA	En_Gen	440 pM	6/6	1/18
KLSQSVPYESRNKNAVA	NASTRES	QQYHRLPLS	GP_Gen	500 pM	6/6	0/18
KLYGSVLYESRNKNAVA	GASQREK	QQYHRLPLS	GP_Gibbs	580 pM	6/6	0/18
KVEMSVPYESRNKNSVA	HASVRES	QQYHRLPLS	GP_Gibbs	620 pM	6/6	2/18
KLSQSMLYESRNKNSVA	DASQRLS	QQYHRLPLS	GP_Gen	620 pM	6/6	3/18
TLGDVTRMESNKKNSIA	DMSNRAD	QQYHRLPLA	En_HC	630 pM	6/6	1/18